What was measured:
[1] = target: Metabotropic glutamate receptor 5 (Rattus norvegicus, UniProt P31424); test: Antagonist activity at rat mGluR5 expressed in HEK293A cells assessed as glutamate-induced calcium flux preincubated for 140 sec before glutamate challenge by calcium fluorescence assay; assay type: functional, cell-based, HEK293-A
Method in brief: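 Stable HEK 293A line plated at 20K cells/well and grown overnight at 37 °C, 6% CO2. Loaded with 2 µM Fluo-4 AM in HBSS/20 mM HEPES/2.5 mM probenecid at 37 °C, then buffer at room temperature. Ten-point 1:3 serial dilutions were added at t = 3 s, followed by EC80 glutamate for 60 s. Ca2+ fluorescence read kinetically at 1 Hz. Four-point logistic fit, multi-day averages.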

Amino acid sequences for entries named in this document (tags omitted).
UniProt P31424, whole entry: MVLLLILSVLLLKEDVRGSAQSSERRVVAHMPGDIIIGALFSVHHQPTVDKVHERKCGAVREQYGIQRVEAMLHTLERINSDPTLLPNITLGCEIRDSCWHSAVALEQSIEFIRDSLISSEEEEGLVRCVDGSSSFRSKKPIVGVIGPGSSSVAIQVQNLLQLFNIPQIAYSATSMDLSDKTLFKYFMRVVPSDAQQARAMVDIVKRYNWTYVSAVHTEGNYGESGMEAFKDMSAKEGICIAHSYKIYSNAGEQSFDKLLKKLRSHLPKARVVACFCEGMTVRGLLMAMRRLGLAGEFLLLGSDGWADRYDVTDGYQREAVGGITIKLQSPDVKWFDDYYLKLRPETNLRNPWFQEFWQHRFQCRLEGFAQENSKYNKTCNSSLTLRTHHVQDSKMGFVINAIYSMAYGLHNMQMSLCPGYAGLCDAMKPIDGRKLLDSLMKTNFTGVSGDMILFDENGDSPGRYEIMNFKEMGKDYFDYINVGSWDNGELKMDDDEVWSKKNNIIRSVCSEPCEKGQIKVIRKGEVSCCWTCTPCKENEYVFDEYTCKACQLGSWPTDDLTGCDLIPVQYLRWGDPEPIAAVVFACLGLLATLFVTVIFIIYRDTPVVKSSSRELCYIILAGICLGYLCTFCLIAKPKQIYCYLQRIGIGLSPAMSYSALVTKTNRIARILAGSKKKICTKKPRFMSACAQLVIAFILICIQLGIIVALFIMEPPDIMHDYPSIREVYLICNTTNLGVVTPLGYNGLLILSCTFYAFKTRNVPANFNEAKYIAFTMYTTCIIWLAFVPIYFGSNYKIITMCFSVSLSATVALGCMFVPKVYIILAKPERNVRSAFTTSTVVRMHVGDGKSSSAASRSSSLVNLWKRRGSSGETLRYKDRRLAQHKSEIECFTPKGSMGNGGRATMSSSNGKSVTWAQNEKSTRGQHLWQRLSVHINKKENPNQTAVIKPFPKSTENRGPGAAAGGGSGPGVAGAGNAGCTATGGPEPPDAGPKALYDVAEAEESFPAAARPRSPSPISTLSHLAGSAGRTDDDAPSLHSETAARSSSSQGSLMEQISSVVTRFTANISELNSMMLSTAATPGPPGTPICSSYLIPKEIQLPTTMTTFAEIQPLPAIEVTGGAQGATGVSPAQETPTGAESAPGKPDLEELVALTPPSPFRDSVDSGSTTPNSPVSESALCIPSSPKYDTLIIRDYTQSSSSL
UniProt P41594, whole entry: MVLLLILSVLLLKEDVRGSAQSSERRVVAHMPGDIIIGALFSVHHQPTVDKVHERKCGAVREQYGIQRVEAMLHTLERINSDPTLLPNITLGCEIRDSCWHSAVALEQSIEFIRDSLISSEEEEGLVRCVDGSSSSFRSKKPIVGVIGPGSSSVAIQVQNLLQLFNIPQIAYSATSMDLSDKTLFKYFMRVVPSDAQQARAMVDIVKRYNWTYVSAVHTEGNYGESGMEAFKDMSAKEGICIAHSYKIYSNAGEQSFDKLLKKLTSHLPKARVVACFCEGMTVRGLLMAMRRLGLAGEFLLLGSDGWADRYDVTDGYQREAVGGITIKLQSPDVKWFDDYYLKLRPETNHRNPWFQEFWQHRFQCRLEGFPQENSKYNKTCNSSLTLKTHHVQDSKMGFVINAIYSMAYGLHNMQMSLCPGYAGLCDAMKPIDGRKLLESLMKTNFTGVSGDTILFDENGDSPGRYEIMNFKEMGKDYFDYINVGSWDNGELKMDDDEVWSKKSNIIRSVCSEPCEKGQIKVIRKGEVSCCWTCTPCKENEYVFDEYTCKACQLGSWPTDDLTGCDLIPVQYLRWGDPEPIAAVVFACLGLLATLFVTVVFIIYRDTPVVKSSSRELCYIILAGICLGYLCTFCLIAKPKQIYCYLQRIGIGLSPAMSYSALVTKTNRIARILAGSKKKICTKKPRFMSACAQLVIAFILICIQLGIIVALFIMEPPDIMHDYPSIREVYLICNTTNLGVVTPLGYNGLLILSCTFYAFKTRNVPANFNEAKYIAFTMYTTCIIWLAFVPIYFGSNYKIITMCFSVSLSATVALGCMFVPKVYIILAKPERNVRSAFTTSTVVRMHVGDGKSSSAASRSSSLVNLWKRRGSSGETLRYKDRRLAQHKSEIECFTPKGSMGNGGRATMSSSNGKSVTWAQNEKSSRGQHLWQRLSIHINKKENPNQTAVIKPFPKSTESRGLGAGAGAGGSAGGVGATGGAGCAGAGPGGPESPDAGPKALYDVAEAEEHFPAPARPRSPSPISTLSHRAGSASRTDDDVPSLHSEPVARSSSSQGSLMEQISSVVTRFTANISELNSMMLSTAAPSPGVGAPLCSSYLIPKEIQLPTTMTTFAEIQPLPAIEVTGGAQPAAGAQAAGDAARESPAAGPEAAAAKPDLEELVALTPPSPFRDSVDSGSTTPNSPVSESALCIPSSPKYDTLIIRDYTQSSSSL

[2] = target: Metabotropic glutamate receptor 5 (Homo sapiens, UniProt P41594); test: Displacement of [3H]MPEP from cloned mGluR5 expressed in HEK293T cells by scintillation counting; assay type: cell-based, HEK-293T

SMILES | IC50 [1] [nM] | Ki [2] [nM]
Cc1nc(C#Cc2ccc(-c3cccnc3)nc2)cs1 | 5.24 | 5.65
Cc1nc(C#Cc2cccc(-c3ccccc3)c2)cs1 | 3.05 | 10.8
Cc1cccc(C#Cc2ccccc2)n1 | 3.54 | 13
Cc1nc(C#Cc2cccnc2)cs1 | 13.6 | 
Cc1nc(C#Cc2ccc(-c3cccnc3)c(F)c2)cs1 | 3.43 | 11.4
Cc1cccc(NC(=O)c2ccc(-c3cccc(F)c3)c(C#N)c2)n1 | 25.3 | 22
Cc1nc(C#Cc2ccc(-c3ccccc3)nc2)cs1 | 1.21 | 5.49

Reference: ChEMBL document CHEMBL1136938, “Structure-activity relationships comparing N-(6-methylpyridin-yl)-substituted aryl amides to 2-methyl-6-(substituted-arylethynyl)pyridines or 2-methyl-4-(substituted-arylethynyl)thiazoles as novel metabotropic glutamate receptor subtype 5 antagonists” (J Med Chem, 2009)
